Results reported in US20100035904A1, “PHE[…]; METHODS OF MAKING; AND METHODS OF USE THEREOF” (priority 2008, published 2010).

Experiment: Analysis of residual solids from water slurry (XRPD, 1H-NMR) for form conversion
Format: physicochemical
Details: water slurry overnight, ambient temperature

Substance	XRPD of residual solid from water slurry / aqueous solubility
phenobarbital benzathine	consistent with the initial material
phenobarbital betaine [phenobarbital betaine salt]	unique compared to the initial material
